Sequences of proteins named here, by UniProt entry; tags and fusion partners are left off. A change or cut given only in a name is not applied to a line headed by its entry.
UniProt P49761: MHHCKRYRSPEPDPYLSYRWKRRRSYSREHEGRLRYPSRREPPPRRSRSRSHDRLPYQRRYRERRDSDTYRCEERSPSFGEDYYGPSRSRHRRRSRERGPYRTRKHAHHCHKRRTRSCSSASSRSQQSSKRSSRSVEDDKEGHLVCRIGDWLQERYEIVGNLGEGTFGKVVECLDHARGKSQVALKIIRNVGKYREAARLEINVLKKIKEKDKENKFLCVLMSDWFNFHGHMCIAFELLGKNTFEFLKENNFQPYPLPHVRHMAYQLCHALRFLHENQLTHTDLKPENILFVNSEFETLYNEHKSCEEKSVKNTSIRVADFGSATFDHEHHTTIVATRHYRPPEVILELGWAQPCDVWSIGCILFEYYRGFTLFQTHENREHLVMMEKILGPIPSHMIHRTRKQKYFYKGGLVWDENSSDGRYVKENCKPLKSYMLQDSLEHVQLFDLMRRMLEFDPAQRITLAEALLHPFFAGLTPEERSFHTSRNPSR
UniProt P08581: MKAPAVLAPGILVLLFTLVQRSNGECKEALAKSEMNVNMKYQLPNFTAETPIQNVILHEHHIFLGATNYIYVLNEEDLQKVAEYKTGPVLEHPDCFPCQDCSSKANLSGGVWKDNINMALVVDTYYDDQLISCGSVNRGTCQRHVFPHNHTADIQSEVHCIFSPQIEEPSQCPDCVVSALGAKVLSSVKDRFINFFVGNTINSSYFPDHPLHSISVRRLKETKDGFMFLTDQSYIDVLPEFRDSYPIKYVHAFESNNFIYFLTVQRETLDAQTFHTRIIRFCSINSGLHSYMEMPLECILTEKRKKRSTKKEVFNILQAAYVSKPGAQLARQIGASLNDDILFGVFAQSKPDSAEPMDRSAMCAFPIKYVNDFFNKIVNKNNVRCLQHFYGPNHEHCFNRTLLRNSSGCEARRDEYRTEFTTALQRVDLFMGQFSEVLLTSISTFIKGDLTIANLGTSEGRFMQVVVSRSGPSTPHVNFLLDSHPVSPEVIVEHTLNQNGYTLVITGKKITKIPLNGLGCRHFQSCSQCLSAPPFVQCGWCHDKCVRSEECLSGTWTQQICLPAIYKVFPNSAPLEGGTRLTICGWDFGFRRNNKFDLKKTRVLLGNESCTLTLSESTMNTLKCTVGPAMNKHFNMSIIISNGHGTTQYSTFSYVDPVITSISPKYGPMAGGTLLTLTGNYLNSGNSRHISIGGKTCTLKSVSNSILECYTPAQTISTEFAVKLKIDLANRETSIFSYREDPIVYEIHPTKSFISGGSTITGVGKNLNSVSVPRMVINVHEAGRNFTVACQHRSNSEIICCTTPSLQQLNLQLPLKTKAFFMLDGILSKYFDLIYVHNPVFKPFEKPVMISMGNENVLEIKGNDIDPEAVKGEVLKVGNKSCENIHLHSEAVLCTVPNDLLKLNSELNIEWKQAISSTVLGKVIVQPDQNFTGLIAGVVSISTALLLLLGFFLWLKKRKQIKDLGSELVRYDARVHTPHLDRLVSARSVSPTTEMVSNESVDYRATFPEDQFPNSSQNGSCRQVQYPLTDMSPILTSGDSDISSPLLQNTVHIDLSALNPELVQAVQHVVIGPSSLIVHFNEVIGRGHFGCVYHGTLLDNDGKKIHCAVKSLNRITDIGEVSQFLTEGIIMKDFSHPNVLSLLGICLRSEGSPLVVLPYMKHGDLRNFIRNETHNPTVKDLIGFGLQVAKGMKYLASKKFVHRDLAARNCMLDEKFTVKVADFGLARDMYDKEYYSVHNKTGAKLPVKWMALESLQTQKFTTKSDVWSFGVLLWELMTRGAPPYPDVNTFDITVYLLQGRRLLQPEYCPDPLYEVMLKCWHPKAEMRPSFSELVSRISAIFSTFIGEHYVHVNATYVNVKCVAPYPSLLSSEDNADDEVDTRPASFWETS
UniProt P52333: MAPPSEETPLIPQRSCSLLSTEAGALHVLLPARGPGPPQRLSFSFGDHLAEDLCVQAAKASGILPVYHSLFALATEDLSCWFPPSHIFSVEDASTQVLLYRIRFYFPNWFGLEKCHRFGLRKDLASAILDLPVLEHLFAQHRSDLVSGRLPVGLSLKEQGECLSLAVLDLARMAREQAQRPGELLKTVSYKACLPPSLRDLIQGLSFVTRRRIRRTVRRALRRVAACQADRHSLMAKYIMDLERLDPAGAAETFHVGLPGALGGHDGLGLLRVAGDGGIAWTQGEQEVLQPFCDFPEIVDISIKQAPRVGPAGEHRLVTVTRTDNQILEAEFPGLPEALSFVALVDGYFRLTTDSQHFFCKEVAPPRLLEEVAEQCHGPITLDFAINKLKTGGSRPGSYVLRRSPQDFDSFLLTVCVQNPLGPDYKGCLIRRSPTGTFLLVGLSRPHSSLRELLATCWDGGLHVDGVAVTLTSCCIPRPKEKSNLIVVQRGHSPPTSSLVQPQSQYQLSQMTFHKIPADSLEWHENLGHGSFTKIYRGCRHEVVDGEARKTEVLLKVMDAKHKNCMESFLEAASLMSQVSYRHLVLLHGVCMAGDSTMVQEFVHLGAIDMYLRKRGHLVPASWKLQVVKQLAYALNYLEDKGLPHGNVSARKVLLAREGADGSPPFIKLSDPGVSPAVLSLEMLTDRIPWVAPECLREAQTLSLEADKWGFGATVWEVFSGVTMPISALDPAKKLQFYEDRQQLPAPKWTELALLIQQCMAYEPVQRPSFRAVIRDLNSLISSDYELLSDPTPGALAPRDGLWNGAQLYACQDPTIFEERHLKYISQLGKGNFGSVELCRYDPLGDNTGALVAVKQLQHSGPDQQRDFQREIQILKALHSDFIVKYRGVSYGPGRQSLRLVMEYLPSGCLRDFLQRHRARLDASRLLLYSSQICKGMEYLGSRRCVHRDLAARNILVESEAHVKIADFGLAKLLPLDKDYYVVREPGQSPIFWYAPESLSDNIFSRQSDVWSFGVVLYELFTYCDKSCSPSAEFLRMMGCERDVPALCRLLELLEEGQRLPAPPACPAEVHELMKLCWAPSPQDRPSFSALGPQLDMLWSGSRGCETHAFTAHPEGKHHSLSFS
UniProt Q9HCP0: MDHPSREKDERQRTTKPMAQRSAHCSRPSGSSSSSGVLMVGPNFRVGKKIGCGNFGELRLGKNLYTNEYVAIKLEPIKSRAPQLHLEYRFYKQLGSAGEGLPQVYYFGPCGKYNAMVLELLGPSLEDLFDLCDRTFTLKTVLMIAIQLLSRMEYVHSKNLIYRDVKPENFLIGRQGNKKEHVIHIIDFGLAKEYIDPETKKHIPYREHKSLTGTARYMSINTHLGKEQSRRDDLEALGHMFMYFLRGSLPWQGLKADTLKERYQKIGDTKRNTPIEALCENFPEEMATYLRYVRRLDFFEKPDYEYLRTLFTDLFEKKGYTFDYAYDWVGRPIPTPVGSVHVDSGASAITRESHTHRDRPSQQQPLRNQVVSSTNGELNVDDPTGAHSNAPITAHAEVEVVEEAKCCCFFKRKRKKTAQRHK
UniProt Q8NG66: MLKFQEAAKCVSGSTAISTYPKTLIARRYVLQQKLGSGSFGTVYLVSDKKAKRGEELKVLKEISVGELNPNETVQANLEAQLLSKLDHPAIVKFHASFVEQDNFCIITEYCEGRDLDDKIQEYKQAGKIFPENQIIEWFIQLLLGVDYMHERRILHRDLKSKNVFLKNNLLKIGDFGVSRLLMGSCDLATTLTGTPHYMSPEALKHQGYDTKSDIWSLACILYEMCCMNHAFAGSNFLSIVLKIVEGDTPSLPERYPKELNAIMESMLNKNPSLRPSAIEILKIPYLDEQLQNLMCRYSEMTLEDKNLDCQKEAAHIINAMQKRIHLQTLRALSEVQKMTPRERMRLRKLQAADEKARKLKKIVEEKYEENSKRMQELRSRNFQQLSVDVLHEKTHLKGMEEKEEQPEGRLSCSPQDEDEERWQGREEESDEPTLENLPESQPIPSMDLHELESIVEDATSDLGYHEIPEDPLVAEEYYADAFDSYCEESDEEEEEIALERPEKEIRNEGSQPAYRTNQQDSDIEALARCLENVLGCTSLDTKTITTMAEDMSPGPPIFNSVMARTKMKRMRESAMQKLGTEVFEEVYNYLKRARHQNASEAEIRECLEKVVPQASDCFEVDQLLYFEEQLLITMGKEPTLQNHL
UniProt Q6PHR2: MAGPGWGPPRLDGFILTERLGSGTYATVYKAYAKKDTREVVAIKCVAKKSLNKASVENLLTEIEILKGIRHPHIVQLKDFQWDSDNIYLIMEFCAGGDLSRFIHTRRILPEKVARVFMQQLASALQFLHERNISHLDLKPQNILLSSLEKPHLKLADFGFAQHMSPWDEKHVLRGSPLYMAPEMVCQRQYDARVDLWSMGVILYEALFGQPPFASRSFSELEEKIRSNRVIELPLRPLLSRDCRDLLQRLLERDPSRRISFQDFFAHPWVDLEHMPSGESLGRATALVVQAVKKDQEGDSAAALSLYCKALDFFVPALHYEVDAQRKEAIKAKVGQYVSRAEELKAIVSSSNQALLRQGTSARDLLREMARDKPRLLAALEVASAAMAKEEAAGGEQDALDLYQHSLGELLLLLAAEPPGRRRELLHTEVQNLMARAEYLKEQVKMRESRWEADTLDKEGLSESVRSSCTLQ
UniProt P53350, whole entry, looked up: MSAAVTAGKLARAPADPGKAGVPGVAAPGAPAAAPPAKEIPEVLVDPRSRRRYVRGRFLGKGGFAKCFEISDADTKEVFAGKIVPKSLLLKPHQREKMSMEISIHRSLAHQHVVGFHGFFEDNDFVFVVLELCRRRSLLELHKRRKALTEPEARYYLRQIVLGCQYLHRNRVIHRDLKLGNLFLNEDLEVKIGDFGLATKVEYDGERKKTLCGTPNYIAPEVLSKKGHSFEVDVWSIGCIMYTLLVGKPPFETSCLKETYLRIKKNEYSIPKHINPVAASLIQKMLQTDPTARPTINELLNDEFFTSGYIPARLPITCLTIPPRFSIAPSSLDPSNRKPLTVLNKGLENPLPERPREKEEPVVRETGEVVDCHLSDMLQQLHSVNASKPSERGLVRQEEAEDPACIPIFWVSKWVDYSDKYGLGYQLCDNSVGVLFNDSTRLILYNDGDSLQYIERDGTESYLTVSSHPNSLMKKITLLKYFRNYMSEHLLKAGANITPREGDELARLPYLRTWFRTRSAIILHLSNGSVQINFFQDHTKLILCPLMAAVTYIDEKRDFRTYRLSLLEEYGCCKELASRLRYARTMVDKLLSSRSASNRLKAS
UniProt Q05655: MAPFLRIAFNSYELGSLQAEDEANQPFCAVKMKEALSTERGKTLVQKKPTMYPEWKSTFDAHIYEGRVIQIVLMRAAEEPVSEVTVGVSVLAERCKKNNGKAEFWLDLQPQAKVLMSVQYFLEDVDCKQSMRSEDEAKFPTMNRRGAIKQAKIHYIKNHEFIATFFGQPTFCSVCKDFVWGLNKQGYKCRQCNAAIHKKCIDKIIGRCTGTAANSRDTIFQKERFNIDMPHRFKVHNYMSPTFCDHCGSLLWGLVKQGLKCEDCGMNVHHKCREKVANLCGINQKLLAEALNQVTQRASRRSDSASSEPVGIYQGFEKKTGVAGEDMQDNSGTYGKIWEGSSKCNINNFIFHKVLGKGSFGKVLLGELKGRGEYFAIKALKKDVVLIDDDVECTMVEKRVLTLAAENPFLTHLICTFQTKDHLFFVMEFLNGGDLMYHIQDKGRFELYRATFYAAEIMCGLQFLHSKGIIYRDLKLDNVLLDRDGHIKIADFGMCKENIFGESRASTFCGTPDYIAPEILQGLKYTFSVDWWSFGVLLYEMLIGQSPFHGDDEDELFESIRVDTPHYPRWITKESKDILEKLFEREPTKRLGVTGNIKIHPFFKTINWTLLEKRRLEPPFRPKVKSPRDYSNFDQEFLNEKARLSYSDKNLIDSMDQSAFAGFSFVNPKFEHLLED
UniProt Q13555: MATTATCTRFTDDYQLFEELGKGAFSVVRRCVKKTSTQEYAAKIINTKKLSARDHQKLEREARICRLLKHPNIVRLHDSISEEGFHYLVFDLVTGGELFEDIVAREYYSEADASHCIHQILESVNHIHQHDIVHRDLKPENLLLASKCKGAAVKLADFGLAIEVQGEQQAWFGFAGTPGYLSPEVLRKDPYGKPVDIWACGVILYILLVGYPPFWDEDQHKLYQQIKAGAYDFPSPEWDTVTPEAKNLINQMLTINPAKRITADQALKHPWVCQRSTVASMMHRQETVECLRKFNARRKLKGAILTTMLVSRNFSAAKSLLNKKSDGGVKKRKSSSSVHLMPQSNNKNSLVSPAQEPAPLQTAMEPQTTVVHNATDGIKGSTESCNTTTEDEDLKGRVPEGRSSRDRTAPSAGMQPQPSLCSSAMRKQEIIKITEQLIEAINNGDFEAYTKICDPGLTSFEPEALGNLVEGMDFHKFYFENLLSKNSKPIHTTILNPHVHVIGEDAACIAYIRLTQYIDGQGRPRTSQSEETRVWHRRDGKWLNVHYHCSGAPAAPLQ

In the kinase profiling compilation of Christmann-Franck et al. (2016):

Legend:
Assay in all cases: radiometric filter-binding kinase assay, Kinase HotSpot
Details in all cases: compound 0.5 µM; ATP 10 µM
BLK (human) = BLK (human) (UniProt P51451)
FGFR4 (human) = FGFR4 (human) (UniProt P22455)
NEK1 (human) = NEK1 (human) (UniProt Q96PY6)
MARK4 (human) = MARK4 (human) (UniProt Q96L34)
ABL2 (human) = ABL2 (human) (UniProt P42684)
PHKG1 (human) = PHKG1 (human) (UniProt Q16816)
CLK3 (human) = CLK3 (human) (UniProt P49761)
MET (human) = MET (human) (UniProt P08581)
NTRK3 (human) = NTRK3 (human) (UniProt Q16288)
ACVR1B (human) = ACVR1B (human) (UniProt P36896)
CAMKK2 (human) = CAMKK2 (human) (UniProt Q96RR4)
PRKCZ (human) = PRKCZ (human) (UniProt Q05513)
RPS6KA4 KD2 (human) = RPS6KA4 KD2 (human) (UniProt O75676)
JAK3 JH1 JH2 (human) = JAK3 JH1 JH2 (human) (UniProt P52333)
INSR (human) = INSR (human) (UniProt P06213)
CSNK1G1 (human) = CSNK1G1 (human) (UniProt Q9HCP0)
ITK (human) = ITK (human) (UniProt Q08881)
MST4 (human) = MST4 (human) (UniProt Q9P289)
PRKCG (human) = PRKCG (human) (UniProt P05129)
STK10 (human) = STK10 (human) (UniProt O94804)
ERBB2 (human) = ERBB2 (human) (UniProt P04626)
MYLK (human) = MYLK (human) (UniProt Q15746)
MAP3K9 (human) = MAP3K9 (human) (UniProt P80192)
NEK11 (human) = NEK11 (human) (UniProt Q8NG66)
TSSK2 (human) = TSSK2 (human) (UniProt Q96PF2)
MAP3K14 (human) = MAP3K14 (human) (UniProt Q99558)
STK3 (human) = STK3 (human) (UniProt Q13188)
EPHA5 (human) = EPHA5 (human) (UniProt P54756)
FLT3 (human) = FLT3 (human) (UniProt P36888)
ACVR1 (human) = ACVR1 (human) (UniProt Q04771)
ULK3 (human) = ULK3 (human) (UniProt Q6PHR2)
MST1R (human) = MST1R (human) (UniProt Q04912)
BRSK1 (human) = BRSK1 (human) (UniProt Q8TDC3)
GRK6 (human) = GRK6 (human) (UniProt P43250)
[1] = tested on: ARAF (human), P10398 [Y301D/Y302D]
IKBKB (human) = IKBKB (human) (UniProt O14920)
PASK (human) = PASK (human) (UniProt Q96RG2)
PLK1 (human) = PLK1 (human) (UniProt P53350)
PRKCD (human) = PRKCD (human) (UniProt Q05655)
PAK1 (human) = PAK1 (human) (UniProt Q13153)
CAMK2G (human) = CAMK2G (human) (UniProt Q13555)
MAP3K11 (human) = MAP3K11 (human) (UniProt Q16584)

SMILES: O=C1Nc2ccc3ncsc3c2/C1=C/c1c[nH]cn1
- residual activity (BLK (human)): 81.3%
- residual activity (FGFR4 (human)): 90.7%
- residual activity (NEK1 (human)): 34.3%
- residual activity (MARK4 (human)): 12.8%
- residual activity (ABL2 (human)): 69.8%
- residual activity (PHKG1 (human)): 37.2%
- residual activity (CLK3 (human)): 65.5%
- residual activity (MET (human)): 74.4%
- residual activity (NTRK3 (human)): 6.55%
- residual activity (ACVR1B (human)): 131%
- residual activity (CAMKK2 (human)): 54.4%
- residual activity (PRKCZ (human)): 83.2%
- residual activity (RPS6KA4 KD2 (human)): 28%
- residual activity (JAK3 JH1 JH2 (human)): 20.6%
- residual activity (INSR (human)): 93.3%
- residual activity (CSNK1G1 (human)): 86.9%
- residual activity (ITK (human)): 80.9%
- residual activity (MST4 (human)): 10.8%
- residual activity (PRKCG (human)): 98.7%
- residual activity (STK10 (human)): 38%
- residual activity (ERBB2 (human)): 99.8%
- residual activity (MYLK (human)): 40.1%
- residual activity (MAP3K9 (human)): 46.1%
- residual activity (NEK11 (human)): 112%
- residual activity (TSSK2 (human)): 94.9%
- residual activity (MAP3K14 (human)): 142%
- residual activity (STK3 (human)): 3.37%
- residual activity (EPHA5 (human)): 92.3%
- residual activity (FLT3 (human)): 2.82%
- residual activity (ACVR1 (human)): 144%
- residual activity (ULK3 (human)): 57.9%
- residual activity (MST1R (human)): 70.2%
- residual activity (BRSK1 (human)): 10%
- residual activity (GRK6 (human)): 67.7%
- residual activity [1]: 115%
- residual activity (IKBKB (human)): 70.2%
- residual activity (PASK (human)): 40.9%
- residual activity (PLK1 (human)): 89%
- residual activity (PRKCD (human)): 29.1%
- residual activity (PAK1 (human)): 81.1%
- residual activity (CAMK2G (human)): 101%
- residual activity (MAP3K11 (human)): 28.9%
